AlphaSeq binding of Ab-91 heavy chain variants to a spike HR2 peptide

Reference: Engelhart et al. 2022, doi:10.1038/s41597-022-01779-4. File: FLAb, binding data.

The target is the same throughout: PDVDLGDISGINAS, from the HR2 region of SARS-CoV-2 spike.

Ab-91 is the parent antibody, in scFv form: VL, then three GGGGS repeats, then VH. The light chain is unchanged in all variants.
VL: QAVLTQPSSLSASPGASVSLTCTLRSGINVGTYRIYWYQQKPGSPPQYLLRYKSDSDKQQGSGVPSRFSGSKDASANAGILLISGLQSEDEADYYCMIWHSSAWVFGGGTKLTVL
VH: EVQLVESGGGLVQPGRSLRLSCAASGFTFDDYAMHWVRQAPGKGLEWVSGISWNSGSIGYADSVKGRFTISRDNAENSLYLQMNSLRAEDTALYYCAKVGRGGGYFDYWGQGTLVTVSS

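The starting antibody came from a phage panning campaign against this peptide. The library (AAYL51) carries one to three amino acid substitutions per variant, with no insertions or deletions. The scFvs were displayed on barcoded MATa yeast, the peptide on MATalpha yeast. The frequency of each diploid, read from paired DNA barcodes, reflects how well the two displayed proteins bind. The ratio of observed to expected reads was calibrated, replicate by replicate, on BCL2-family standards whose Kd was known from biolayer interferometry. Mating was done three times.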

Variants are written as CDR1, CDR2 and CDR3 of the heavy chain (limits as in the source). Parent: GFTFDDYAMH, GISWNSGSIGYADSVK, VGRGGGYFDY.
The read-out is the apparent dissociation constant on a log10 scale (nM): the lower, the stronger.
Replicates are averaged; those with no signal do not enter the mean.
"ND" marks a missing value. The strain was present, yet no cells mated with the target were sequenced in that replicate, which points to weak or no binding.
Nonspecific signal, from three strains lacking the peptide, appeared in 21% of pairings of library AAYL51, centred on 4.54 (5% of these signals below 3.26); values are not corrected for it.
In this assay the parent's reference entry averaged 1.86; its copy inside this library read 0.88.

CDR-H1	CDR-H2	CDR-H3	log10 Kd (nM) by replicate	log10 Kd (nM), mean
GFTFDDYAMH	GISWNSGSIGYADSVG	VGYGGGYFDY	3.42 / ND / ND	3.42
GFTFDDYATH	NISWNSGSIGPADSVK	VGRGGGYFDY	ND / ND / ND	ND
GFTFDDYAMG	GISWNSGSWGYADSVK	VGVGGGYFDY	3.97 / ND / ND	3.97
GFTFDDYAMH	GISWNSGTIGYADSRK	VGRGGGYFDY	ND / ND / ND	ND
GNAFDDYAMH	GISWNSGSIGYADSVK	VGRGKGYFDY	ND / ND / 3.71	3.71
GFTFLEYAMH	AISWNSGSIGYADSVK	VGRGGGYFDY	ND / ND / ND	ND
GFTFDRYKMH	GISWNSGSIGYAYSVK	VGRGGGYFDY	ND / ND / 4.79	4.79
GFTFDHYDMH	GISWNSGSIGYADSVK	VGRGGAYFDY	ND / 4.33 / ND	4.33
GFTFDDYAMH	GISWESGSIGYADSVK	VGRHGGYFDY	ND / ND / ND	ND
GFTFDDYANH	GISWCSGSIGYLDSVK	VGRGGGYFDY	ND / ND / ND	ND
GFTFDDYAMH	GINWNSGSIGYADSVK	VGRGMGYFDK	ND / ND / ND	ND
GFTFDDYAMH	VASWNSISIGYADSVK	VGRGGGYFDY	ND / 4.78 / ND	4.78
GFTFDDYTNH	GISWNSGSIGYADEVK	VGRGGGYFDY	ND / ND / ND	ND
GFTFDDGAMH	GISWNSGSIGYADSVK	VGRGGHYFDY	4.45 / ND / ND	4.45
GFTFDDYAMH	GIDWNSGSIGYADSVK	VGRGGGYFDC	2.64 / 2.87 / 2.44	2.65
GFTFHEYAMH	GICWNSGSIGYADSVK	VGRGGGYFDY	ND / ND / ND	ND
GFTFDDYIMH	GISWNSGSIGYADSVK	VGEGNGYFDY	3.38 / ND / ND	3.38
GFTFDDIKMH	GISWNSGSTGYADSVK	VGRGGGYFDY	ND / ND / ND	ND
GFTFDDYAMK	GISWNSGSIGYCDSVK	VGRGDGYFDY	ND / ND / ND	ND
GFTFDGYAMF	GISWNSGSIGYADSVK	VGRGGGYFDL	ND / 3.50 / ND	3.50
GFTFDDYAMH	GISWNSGSIGYADKVW	VGRGGGMFDY	1.77 / 1.57 / 1.36	1.57
GFTFDDVAMH	GKSWNSGSIGYADSVK	VGRGGGYFDY	ND / 4.24 / ND	4.24
WFTFDDTAMH	GISWNSGEIGYADSVK	VGRGGGYFDY	3.77 / ND / ND	3.77
GTTFDDYAMH	GISWTSGSIGYADSIK	VGRGGGYFDY	3.78 / ND / ND	3.78
GFTFFDLNMH	GISWNSGSIGYADSVK	VGRGGGYFDY	5.39 / ND / ND	5.39
GFTFDDYAMH	GISWNSGSIPYAYSVK	VGRGVGYFDY	5.26 / 4.97 / ND	5.11
GFTFDDYAMH	GISWNSGSIGYADSVK	NGRGGGPFPY	ND / ND / ND	ND
GFTFDDYAMH	GIIWNSGSVGYADSVK	VGRGGGYNDY	4.23 / ND / ND	4.23
GFWFDDYAMH	GIHWNSGQIGYADSVK	VGRGGGYFDY	ND / ND / ND	ND
GFTFDGYAMH	GISWNSESIGYADSVK	VGRGGGYFMY	0.38 / 0.29 / -0.34	0.11
GFTFDDYAMH	GISWRSGSIGSADSVK	VGRGGGYFDY	4.60 / 6.08 / 5.36	5.35
GFTFDDYAMH	GISWNNGSIGYADTVK	VGRGGGYFDY	ND / ND / ND	ND
GFTFDDYAMH	GGSCNSGSIGYADSVK	VGRGGFYFDY	4.53 / 6.15 / 5.57	5.42
GITFDDWAMH	GISWNSGSIGYADSVK	VGRGAGYFDY	ND / ND / ND	ND
GFTFDDYAIH	GISWNSGSIGEADSVK	VGKGGGYFDY	ND / ND / ND	ND
GFTFDDYAHH	GISWNSGSIGRADSVK	VGRGGGYFDY	4.08 / ND / ND	4.08
GFTFDDYAMH	YISWNSGSIGYHDSVK	VGRPGGYFDY	ND / ND / ND	ND

Picked from the list: the 4 lowest averages where every replicate gave a value.

| CDR-H1 | CDR-H2 | CDR-H3 | log10 Kd (nM) by replicate | log10 Kd (nM), mean |
|---|---|---|---|---|
| GFTFDGYAMH | GISWNSESIGYADSVK | VGRGGGYFMY | 0.38 / 0.29 / -0.34 | 0.11 |
| GFTFDDYAMH | GISWNSGSIGYADKVW | VGRGGGMFDY | 1.77 / 1.57 / 1.36 | 1.57 |
| GFTFDDYAMH | GIDWNSGSIGYADSVK | VGRGGGYFDC | 2.64 / 2.87 / 2.44 | 2.65 |
| GFTFDDYAMH | GISWRSGSIGSADSVK | VGRGGGYFDY | 4.60 / 6.08 / 5.36 | 5.35 |